Assay results as given in paper PMC3944073.

Molecular target: GFP-β-DGNLS fusion protein
Assay: AlphaScreen or HTRF; ALPHAScreen; His6-tagged GFP-β-DG-NLS at a fixed amount per well with increasing GST-ezrin, GST-IMPα2/β1 or GST alone (0-60 nM); nickel chelate acceptor beads and streptavidin donor beads; room temperature; apparent dissociation constants from sigmoidal fits

Substance: GST-tagged predimerized IMPα2/β1 heterodimer (from UniProt P52293 1-529; P70168 1-876) (complex)
- Kd: 0.98 nM
